PubChem BioAssay (NCI)
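48-hour exposure; five concentrations; linearly interpolated endpoints. GI50 marks 50% less growth. The concentration for full growth arrest is given as TGI.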

How the values were obtained:
Test in all cases: DTP human tumour cell line panel, 48 h
A498 renal = tested on: A498 renal
SNB-19 CNS = tested on: SNB-19 CNS
HCT-15 colon = tested on: HCT-15 colon
SW-620 colon = tested on: SW-620 colon
SF-295 CNS = tested on: SF-295 CNS
SN12C renal = tested on: SN12C renal
IGROV1 ovarian = tested on: IGROV1 ovarian
EKVX NSCLC = tested on: EKVX NSCLC
HT29 colon = tested on: HT29 colon
SNB-75 CNS = tested on: SNB-75 CNS
RXF 393 renal = tested on: RXF 393 renal
A549 NSCLC = tested on: A549 NSCLC
UACC-62 melanoma = tested on: UACC-62 melanoma
OVCAR-8 ovarian = tested on: OVCAR-8 ovarian
RPMI-8226 leukemia = tested on: RPMI-8226 leukemia
UO-31 renal = tested on: UO-31 renal
NCI-H460 lung = tested on: NCI-H460 lung
HS 578T breast = tested on: HS 578T breast
SK-MEL-2 melanoma = tested on: SK-MEL-2 melanoma
DU-145 prostate = tested on: DU-145 prostate
CCRF-CEM leukemia = tested on: CCRF-CEM leukemia
HL-60(TB) leukemia = tested on: HL-60(TB) leukemia
PC-3 prostate = tested on: PC-3 prostate
NCI/ADR-RES ovarian = tested on: NCI/ADR-RES ovarian
MDA-MB-231 breast = tested on: MDA-MB-231 breast
NCI-H226 lung = tested on: NCI-H226 lung
NCI-H23 lung = tested on: NCI-H23 lung
OVCAR-4 ovarian = tested on: OVCAR-4 ovarian
786-0 renal = tested on: 786-0 renal
MDA-MB-435 = tested on: MDA-MB-435
MDA-N = tested on: MDA-N
SF-268 CNS = tested on: SF-268 CNS
NCI-H522 lung = tested on: NCI-H522 lung
COLO 205 colon = tested on: COLO 205 colon
M14 melanoma = tested on: M14 melanoma
OVCAR-5 ovarian = tested on: OVCAR-5 ovarian
HCC-2998 colon = tested on: HCC-2998 colon
ACHN renal = tested on: ACHN renal
OVCAR-3 ovarian = tested on: OVCAR-3 ovarian
HOP-92 NSCLC = tested on: HOP-92 NSCLC
T-47D breast = tested on: T-47D breast
HCT-116 colon = tested on: HCT-116 colon
SK-MEL-28 melanoma = tested on: SK-MEL-28 melanoma
HOP-62 NSCLC = tested on: HOP-62 NSCLC
MCF7 breast = tested on: MCF7 breast
SF-539 CNS = tested on: SF-539 CNS
SK-OV-3 ovarian = tested on: SK-OV-3 ovarian
SK-MEL-5 melanoma = tested on: SK-MEL-5 melanoma
U251 CNS = tested on: U251 CNS
KM12 colon = tested on: KM12 colon
SR leukemia = tested on: SR leukemia
MALME-3M melanoma = tested on: MALME-3M melanoma
LOX IMVI melanoma = tested on: LOX IMVI melanoma
TK-10 renal = tested on: TK-10 renal

O=[N+]([O-])C1([N+](=O)[O-])CCCc2nonc21
GI50 (A498 renal): 27.7 µM | TGI (A498 renal): > 100 µM | GI50 (SNB-19 CNS): > 100 µM | TGI (SNB-19 CNS): > 100 µM | GI50 (HCT-15 colon): 28.8 µM | TGI (HCT-15 colon): > 100 µM | GI50 (SW-620 colon): 35 µM | TGI (SW-620 colon): > 100 µM | GI50 (SF-295 CNS): > 100 µM | TGI (SF-295 CNS): > 100 µM | GI50 (SN12C renal): 37.1 µM | TGI (SN12C renal): > 100 µM | GI50 (IGROV1 ovarian): 17.6 µM | TGI (IGROV1 ovarian): 37 µM | GI50 (EKVX NSCLC): > 100 µM | TGI (EKVX NSCLC): > 100 µM | GI50 (HT29 colon): 30.4 µM | TGI (HT29 colon): > 100 µM | GI50 (SNB-75 CNS): 59.3 µM | TGI (SNB-75 CNS): > 100 µM | GI50 (RXF 393 renal): 40.7 µM | TGI (RXF 393 renal): > 100 µM | GI50 (A549 NSCLC): 37 µM | TGI (A549 NSCLC): > 100 µM | GI50 (UACC-62 melanoma): 39.1 µM | TGI (UACC-62 melanoma): > 100 µM | GI50 (OVCAR-8 ovarian): 33.4 µM | TGI (OVCAR-8 ovarian): > 100 µM | GI50 (RPMI-8226 leukemia): 26.4 µM | TGI (RPMI-8226 leukemia): > 100 µM | GI50 (UO-31 renal): 21.4 µM | TGI (UO-31 renal): > 100 µM | GI50 (NCI-H460 lung): 36.2 µM | TGI (NCI-H460 lung): > 100 µM | GI50 (HS 578T breast): 13.8 µM | TGI (HS 578T breast): 72 µM | GI50 (SK-MEL-2 melanoma): 47.3 µM | TGI (SK-MEL-2 melanoma): > 100 µM | GI50 (DU-145 prostate): > 100 µM | TGI (DU-145 prostate): > 100 µM | GI50 (CCRF-CEM leukemia): 26.6 µM | TGI (CCRF-CEM leukemia): 78.1 µM | TGI (HL-60(TB) leukemia): 35.6 µM | GI50 (PC-3 prostate): 33.9 µM | TGI (PC-3 prostate): > 100 µM | GI50 (NCI/ADR-RES ovarian): 36.6 µM | TGI (NCI/ADR-RES ovarian): > 100 µM | GI50 (MDA-MB-231 breast): 37.2 µM | TGI (MDA-MB-231 breast): > 100 µM | GI50 (NCI-H226 lung): > 100 µM | TGI (NCI-H226 lung): > 100 µM | GI50 (NCI-H23 lung): 20.6 µM | TGI (NCI-H23 lung): 43.9 µM | GI50 (OVCAR-4 ovarian): 38 µM | TGI (OVCAR-4 ovarian): > 100 µM | GI50 (786-0 renal): 45.5 µM | TGI (786-0 renal): > 100 µM | GI50 (MDA-MB-435): 42 µM | TGI (MDA-MB-435): > 100 µM | GI50 (MDA-N): 4.73 µM | TGI (MDA-N): 46.5 µM | GI50 (SF-268 CNS): 69.8 µM | TGI (SF-268 CNS): > 100 µM | GI50 (NCI-H522 lung): 16.5 µM | TGI (NCI-H522 lung): 31 µM | GI50 (COLO 205 colon): 22.6 µM | TGI (COLO 205 colon): 43.4 µM | GI50 (M14 melanoma): 16.3 µM | TGI (M14 melanoma): > 100 µM | GI50 (OVCAR-5 ovarian): > 100 µM | TGI (OVCAR-5 ovarian): > 100 µM | GI50 (HCC-2998 colon): 43.1 µM | TGI (HCC-2998 colon): > 100 µM | GI50 (ACHN renal): > 100 µM | TGI (ACHN renal): > 100 µM | GI50 (OVCAR-3 ovarian): 54.5 µM | TGI (OVCAR-3 ovarian): > 100 µM | GI50 (HOP-92 NSCLC): 44.1 µM | TGI (HOP-92 NSCLC): 77.2 µM | GI50 (T-47D breast): 21 µM | TGI (T-47D breast): 62.2 µM | GI50 (HCT-116 colon): 30.5 µM | TGI (HCT-116 colon): > 100 µM | GI50 (SK-MEL-28 melanoma): > 100 µM | TGI (SK-MEL-28 melanoma): > 100 µM | GI50 (HOP-62 NSCLC): 43.3 µM | TGI (HOP-62 NSCLC): > 100 µM | GI50 (MCF7 breast): 33.9 µM | TGI (MCF7 breast): > 100 µM | GI50 (SF-539 CNS): 39.8 µM | TGI (SF-539 CNS): > 100 µM | GI50 (SK-OV-3 ovarian): > 100 µM | TGI (SK-OV-3 ovarian): > 100 µM | GI50 (SK-MEL-5 melanoma): 40.8 µM | TGI (SK-MEL-5 melanoma): > 100 µM | GI50 (U251 CNS): > 100 µM | TGI (U251 CNS): > 100 µM | GI50 (KM12 colon): 33 µM | TGI (KM12 colon): > 100 µM | GI50 (SR leukemia): 26.5 µM | TGI (SR leukemia): 92.8 µM | GI50 (MALME-3M melanoma): 30.6 µM | TGI (MALME-3M melanoma): > 100 µM | GI50 (LOX IMVI melanoma): 17.2 µM | TGI (LOX IMVI melanoma): 46.1 µM | GI50 (TK-10 renal): > 100 µM | TGI (TK-10 renal): > 100 µM
